Drawing on ChEMBL document CHEMBL3588754, “Parallel Synthesis of Hexahydrodiimidazodiazepines Heterocyclic Peptidomimetics and Their in Vitro and in Vivo Activities at μ (MOR), δ (DOR), and κ (KOR) Opioid Receptors” (J Med Chem, 2015), this text covers ED50 and Ratio ED50 for 1 molecule.

Assay [1] has as its system Mus musculus. The assay is described as follows: Antinociceptive effect in icv dosed C57BL/6 mouse assessed as tail withdrawal latency measured up to 2 hrs by 55 degC Warm water tail withdrawal assay. To be noted: strain C57BL/6, Tail.
The species entered for assay [2] is Mus musculus. The assay is described as follows: Ratio of ED50 for antinociceptive effect in C57BL/6 mouse by 55 degC Warm water tail withdrawal assay to ED50 for analgesic activity in C57BL/6 mouse by acetic acid writhing assay. Particulars: strain C57BL/6, Tail. (In writhing tests, fewer writhes than in controls are read as antinociception.)

On to `CN(C(=O)Cc1ccc(Cl)c(Cl)c1)C1CCCCC1N1CCCC1` (configuration not stated), for which the ED50 in the assay on Mus musculus [1] was 8.62 nM. Moreover, the Ratio ED50 in the assay filed under Mus musculus [2] came to 3.76.
